Series [1] deals with O=c1[nH]c(=O)[nH]c(=O)[nH]1. In words: purified protein. The following applies: 25 mM Tris pH 8.0.
Substrate in series [2]: O=c1[nH]c(=O)[nH]c(=O)[nH]1
Briefly: purified protein. The following applies: 25 mM Tris pH 8.0. The source holds these as a separate data set.

What is called Km is the concentration of substrate that gives half-maximal velocity. Usually kcat stands for the number of substrate molecules converted per active site and unit of time at saturation.

For “RMCAH (re-engineered Moorella cyanuric acid hydrolase) (Moorella thermoacetica ATCC 39073; A291D/DEL283-287/E104A/E288D/F281S/K107A/K280R/K292R/L279I/L290M/Q103A)”, in series [1], the Km came to 276 ± 86 µM and the kcat worked out at 73 ± 17 s⁻¹.

B1: wild-type Moorella thermoacetica cyanuric acid hydrolase (MCAH) (Moorella thermoacetica ATCC 39073) (protein)
chain: MQKVEVFRIPTASPDDISGLATLIDSGKINPAEIVAILGKTEGNGCVNDFTRGFATQSLAMYLAEKLGISREEVVKKVAFIMSGGTEGVMTPHITVFVRKDVQEPAKPGKRLAVGVAFTRDFLPEELGRMEQVNEVARAVKEAMKDAQIDDPRDVHFVQIKCPLLTAERIEDAKRRGKDVVVNDTYKSMAYSRGASALGVALALGEISADKISNEAICHDWNLYSSVASTSAGVELLNDEIIVVGNSTNSASDLVIGHSVMKDAIDADAVRAALKDAGLKFDCCPPAEELAKIVNVLAKAEAASSGTVRGRRNTMLDDSDINHTRSARAVVNAVIASVVGDPMVYVSGGAEHQGPDGGGPIAVIARV
In the case of B1, in series [2], the Km was 318 ± 95 µM and the kcat worked out at 78 ± 18 s⁻¹.

(Values after publication PMC6557486.)
